According to PubChem BioAssay (NCI):
Only a part is listed here, and it is no random draw.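 Values shown are percent growth following 48 h exposure of cells in 96-well plates to a single concentration of compound; below 10 was considered active.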 Active and inactive are the calls of the source.

Columns and labels:
Test in all cases: NCI-60 one-dose screen, 48 h (100 = growth as untreated, 0 = no growth, -100 = all killed)
[1] = system: HCT-15 colon; details: 10 µM unless noted
[2] = system: HT29 colon; details: 10 µM unless noted
[3] = system: SNB-75 CNS; details: 10 µM unless noted
[4] = system: SNB-19 CNS; details: 10 µM unless noted
[5] = system: U251 CNS; details: 10 µM unless noted
[6] = system: PC-3 prostate; details: 10 µM unless noted
[7] = system: SK-MEL-5 melanoma; details: 10 µM unless noted
[8] = system: UACC-62 melanoma; details: 10 µM unless noted
[9] = system: LOX IMVI melanoma; details: 10 µM
[10] = system: SK-MEL-28 melanoma; details: 10 µM unless noted
[11] = system: SK-MEL-2 melanoma; details: 10 µM unless noted
[12] = system: SN12C renal; details: 10 µM unless noted
[13] = system: UO-31 renal; details: 10 µM unless noted
[14] = system: TK-10 renal; details: 10 µM unless noted
[15] = system: ACHN renal; details: 10 µM unless noted
[16] = system: CAKI-1 renal; details: 10 µM unless noted
[17] = system: A498 renal; details: 10 µM unless noted
[18] = system: HL-60(TB) leukemia; details: 10 µM unless noted
[19] = system: CCRF-CEM leukemia; details: 10 µM unless noted
[20] = system: EKVX NSCLC; details: 10 µM unless noted

Measured: growth

Cc1ccc(S(=O)(=O)N(CCCN)CCCc2c(C)nc(N)[nH]c2=O)cc1
inactive: [1] 98.3% | [2] 96.7% | [3] 70.4% | [4] 91.3% | [5] 89.3% | [6] 88.5% | [7] 102% | [8] 101% | [9] 95.9% | [10] 109% | [11] 103% | [12] 85.7% | [13] 72.1% | [14] 115% | [15] 99.8% | [16] 94.3% | [17] 97.4% | [18] 102% | [19] 92.7%

CCN(CC)CCOC(=O)C(O)(c1cccc(OC)c1OC)c1cccc(OC)c1OC
inactive: [1] 98% | [2] 92.3% | [3] 105% | [4] 97.5% | [5] 92.6% | [6] 89.2% | [7] 90.8% | [8] 99.7% | [9] 99.6% | [10] 111% | [20] 111% | [12] 93.8% | [13] 90.4% | [14] 90.2% | [15] 103% | [16] 101% | [17] 93.6% | [18] 96% | [19] 93.3%

CN(CCCl)CC1OC(O)C(O)C(O)C1O (stereo not given)
inactive: [1] 96.3% | [3] 96.4% | [4] 99% | [5] 94.1% | [6] 91.9% | [7] 108% | [8] 100% | [9] 102% | [10] 103% | [11] 120% | [12] 103% | [13] 87.4% | [14] 96% | [15] 96.5% | [16] 105% | [17] 107% | [18] 104%

CCN(CC)C(=O)Oc1ccc(/C=N/NC(N)=S)nc1
inactive: [1] 59.1% | [2] 87.7% | [3] 59.1% | [4] 85.2% | [6] 83.2% | [7] 77.1% | [8] 85.1% | [9] 77.7% | [10] 89.9% | [11] 77% | [12] 79.2% | [13] 51.7% | [14] 67.6% | [15] 62% | [17] 115% | [18] 83.8% | [19] 73.9%

CN(C)C(=O)Oc1ccc(/C=N/NC(N)=S)nc1
inactive: [1] 78.4% | [2] 103% | [3] 57.6% | [4] 104% | [6] 92.4% | [7] 89.9% | [8] 98.9% | [9] 89.7% | [10] 94% | [11] 85.7% | [12] 92.8% | [13] 63.7% | [14] 76.6% | [15] 79.7% | [16] 70.2% | [17] 94.2% | [18] 87% | [19] 88.8%

ClCCNCc1ccccc1
inactive: [1] 106% | [2] 115% | [3] 100% | [5] 104% | [6] 94.4% | [7] 99.9% | [8] 107% | [9] 101% | [10] 118% | [11] 120% | [20] 104% | [12] 114% | [13] 99.3% | [14] 115% | [15] 109% | [16] 103% | [17] 111% | [18] 98.9% | [19] 94.3%

CCN(CC)[P+](c1ccc(OC)cc1OC)(N(CC)CC)N(CC)CC
inactive: [1] 99.2% | [2] 24.4% | [3] 30.2% | [4] 41.2% | [6] 15.8% | [8] 39.7% | [10] 65.6% | [11] 32.3% | [12] 22.9% | [13] 92.3% | [14] 37.4% | [15] 87.5% | [16] 99% | [19] 28.4%
active: [7] 0.745% | [9] -25.9% | [18] -24.6%

C=CCOP(O)OCC=C
inactive: [1] 109% | [2] 105% | [3] 102% | [5] 107% | [6] 96.2% | [7] 104% | [8] 96.1% | [9] 97.1% | [10] 107% | [11] 109% | [20] 101% | [12] 103% | [14] 91.3% | [15] 105% | [16] 91.5% | [17] 102% | [18] 109% | [19] 84.7%

O=[N+]([O-])C1C(O)C(O)C([N+](=O)[O-])C(O)C1O (stereo not given)
inactive: [1] 106% | [2] 101% | [3] 123% | [4] 96.7% | [6] 106% | [7] 101% | [8] 95.8% | [9] 105% | [10] 114% | [11] 118% | [12] 92.8% | [13] 79% | [14] 112% | [15] 112% | [16] 97% | [17] 96.3% | [18] 97.6%

COP(=O)(OC)N1CC1c1ccccc1 (stereo not given)
inactive: [1] 100% | [2] 107% | [3] 92% | [4] 87.9% | [6] 95.9% | [7] 104% | [8] 89.6% | [9] 95.3% | [10] 100% | [11] 112% | [20] 105% | [12] 90.1% | [13] 95% | [14] 118% | [15] 97.4% | [16] 97.3% | [17] 97.9% | [18] 89.3% | [19] 104%

CC(=O)Nc1ccc([As](=O)(O)O)cc1
inactive: [1] 96.9% | [2] 109% | [3] 90.4% | [5] 106% | [6] 99% | [7] 108% | [8] 94.3% | [9] 102% | [10] 118% | [11] 83.8% | [20] 93.4% | [12] 94.4% | [13] 84.7% | [14] 101% | [15] 97.6% | [16] 62.9% | [17] 139% | [18] 106% | [19] 105%

O=[N+]([O-])c1ccc(CCCCCCc2ccc([N+](=O)[O-])cc2[N+](=O)[O-])c([N+](=O)[O-])c1
inactive: [1] 91% | [2] 117% | [3] 106% | [5] 95.3% | [6] 77.7% | [7] 83.5% | [8] 68% | [9] 97.7% | [10] 104% | [11] 103% | [20] 88.4% | [12] 91.8% | [13] 56.4% | [14] 119% | [15] 103% | [16] 83.4% | [17] 69.7% | [19] 85.3%

O=[As]c1ccc(S(=O)(=O)Nc2ccccc2)cc1 (stereo not given)
active: [1] -42.1% | [8] 4.74% | [9] -27.8% | [10] -69% | [18] -32.3% | [19] -12.2%
inactive: [2] 66.5% | [3] 63.9% | [5] 27% | [6] 62.1% | [7] 27.8% | [11] 16.6% | [20] 103% | [12] 48.8% | [13] 27.6% | [14] 21.1% | [15] 75% | [16] 38.7% | [17] 98.5%

Cc1ccccc1CN(CCCl)Cc1ccccc1C
inactive: [1] 104% | [2] 99.3% | [3] 97.5% | [5] 99.1% | [6] 89% | [7] 96.4% | [8] 91.4% | [9] 96.9% | [10] 112% | [11] 109% | [20] 99.4% | [12] 97.1% | [13] 89.2% | [14] 109% | [15] 107% | [16] 96.6% | [17] 91.4% | [18] 99.6% | [19] 92.8%

O=C(c1ccc([N+](=O)[O-])cc1)N(CCCl)CCCl
inactive: [1] 104% | [2] 101% | [3] 80.6% | [4] 101% | [6] 99.3% | [7] 99.9% | [8] 111% | [9] 102% | [10] 105% | [11] 116% | [12] 104% | [13] 98.1% | [14] 97.1% | [15] 104% | [16] 90% | [18] 103% | [19] 101%

CCOC(=O)NC(C)(CCC(C)(NC(=O)OCC)P(=O)(O)Nc1ncccn1)P(=O)(O)Nc1ncccn1 (stereo not given)
inactive: [1] 105% [100 µM] | [2] 114% [100 µM] | [3] 87.2% [100 µM] | [4] 96.6% [100 µM] | [5] 106% [100 µM] | [7] 101% [100 µM] | [8] 96.6% [100 µM] | [10] 106% [100 µM] | [11] 106% [100 µM] | [12] 95.9% [100 µM] | [13] 92.9% [100 µM] | [14] 92.9% [100 µM] | [15] 101% [100 µM] | [16] 93.9% [100 µM] | [17] 121% [100 µM] | [18] 98.7% [100 µM] | [19] 101% [100 µM]

c1cc(-c2nn[nH]n2)ccc1-c1nn[nH]n1
inactive: [1] 99.4% | [2] 110% | [3] 86.9% | [4] 97.2% | [6] 91.1% | [7] 94.8% | [8] 95.2% | [9] 97.6% | [10] 97% | [11] 100% | [20] 91.3% | [12] 95.6% | [13] 88.6% | [14] 109% | [15] 99.3% | [16] 96.8% | [17] 90% | [18] 88.7% | [19] 93.7%

CCOC(=O)Nc1cccc([As](=O)(O)O)c1
inactive: [1] 90.3% | [2] 93.3% | [3] 74.9% | [5] 95% | [7] 101% | [8] 91% | [9] 91% | [10] 115% | [20] 96.4% | [12] 97.9% | [13] 80.7% | [14] 91.6% | [15] 94.9% | [16] 35.6% | [17] 93.1% | [18] 94.2% | [19] 87.3%
